Experimental data reported in publication PMC10177692, “Novel topoisomerase II/EGFR dual inhibitors: design, synthesis and docking studies of naphtho[2′,3′:4,5]thiazolo[3,2-a]pyrimidine hybrids as potential anticancer agents with apoptosis inducing activity” (Journal of Enzyme Inhibition and Medicinal Chemistry, 2023).

The chains behind the UniProt entries cited, without tags or fusion partners. Where a name states a change or a piece, a line headed by the entry shows the natural chain unless it says otherwise.
UniProt P11388: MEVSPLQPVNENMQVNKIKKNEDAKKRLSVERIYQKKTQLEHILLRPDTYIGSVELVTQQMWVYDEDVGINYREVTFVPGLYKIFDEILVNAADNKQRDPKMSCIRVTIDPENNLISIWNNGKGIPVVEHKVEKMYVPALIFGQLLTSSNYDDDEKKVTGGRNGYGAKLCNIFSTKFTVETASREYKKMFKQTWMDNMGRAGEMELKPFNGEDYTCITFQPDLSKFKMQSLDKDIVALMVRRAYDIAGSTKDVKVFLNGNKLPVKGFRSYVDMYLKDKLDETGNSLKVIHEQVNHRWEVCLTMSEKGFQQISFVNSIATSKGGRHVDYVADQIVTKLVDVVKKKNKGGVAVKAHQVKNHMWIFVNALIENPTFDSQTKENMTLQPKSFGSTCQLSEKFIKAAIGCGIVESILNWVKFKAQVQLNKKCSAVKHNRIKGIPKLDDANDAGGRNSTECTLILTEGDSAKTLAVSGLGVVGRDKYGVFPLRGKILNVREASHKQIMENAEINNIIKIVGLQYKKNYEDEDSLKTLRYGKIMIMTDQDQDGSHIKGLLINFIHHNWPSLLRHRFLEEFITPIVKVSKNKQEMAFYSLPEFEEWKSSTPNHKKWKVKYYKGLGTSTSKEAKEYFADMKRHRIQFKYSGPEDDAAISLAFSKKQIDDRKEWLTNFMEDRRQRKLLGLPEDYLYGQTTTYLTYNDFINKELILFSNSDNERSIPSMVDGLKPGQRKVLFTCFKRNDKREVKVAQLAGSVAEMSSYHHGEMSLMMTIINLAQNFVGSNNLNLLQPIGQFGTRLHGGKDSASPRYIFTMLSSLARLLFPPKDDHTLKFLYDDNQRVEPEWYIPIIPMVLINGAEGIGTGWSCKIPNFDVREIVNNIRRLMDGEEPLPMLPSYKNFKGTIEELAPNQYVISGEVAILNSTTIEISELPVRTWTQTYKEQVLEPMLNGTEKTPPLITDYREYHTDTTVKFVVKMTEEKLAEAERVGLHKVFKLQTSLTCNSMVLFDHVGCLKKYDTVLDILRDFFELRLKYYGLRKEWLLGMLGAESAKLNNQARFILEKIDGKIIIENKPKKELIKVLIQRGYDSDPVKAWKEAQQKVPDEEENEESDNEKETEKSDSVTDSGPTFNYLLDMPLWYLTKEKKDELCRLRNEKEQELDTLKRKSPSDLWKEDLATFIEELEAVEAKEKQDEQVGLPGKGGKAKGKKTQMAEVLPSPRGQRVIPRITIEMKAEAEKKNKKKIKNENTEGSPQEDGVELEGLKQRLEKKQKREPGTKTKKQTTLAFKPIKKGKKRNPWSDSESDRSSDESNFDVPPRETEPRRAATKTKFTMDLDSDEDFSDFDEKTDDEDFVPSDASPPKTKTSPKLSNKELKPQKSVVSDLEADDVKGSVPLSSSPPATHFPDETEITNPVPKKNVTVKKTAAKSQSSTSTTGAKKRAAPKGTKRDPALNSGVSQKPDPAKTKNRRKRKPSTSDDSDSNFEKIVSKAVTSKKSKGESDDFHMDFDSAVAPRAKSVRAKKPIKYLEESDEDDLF

Target: T1, topoisomerase II (Homo sapiens, UniProt P11388)
T1 construct: purchased Topogen, USA
Test: DNA topo II inhibition assay (kDNA, agarose gel)
Type: biochemical
Settings: 10 µM, with topo II
Experimental: Using the procedure outlined in topoisomerase II Drug Screening Kit (Topogen, USA), the effect of 6a, 6c and 6i on topoisomerase II inhibition and the effectiveness of catenated/decatenated kDNA formation were examined. The reaction mixture includes 10 mM MgCl2, 50 mM Tris-HCl, 0.5 mM dithiothreitol, […]/ml bovine serum albumin, 200–300 ng of kDNA and topoisomerase II. Test compounds were added to reaction mixture and etoposide used as reference standard. After the reaction samples were incubated for 30 min at 37 °C, the reaction was stopped by adding […] of a stop buffer containing 10% (w/v) SDS and […] of 0.5 mg/ml proteinase followed by incubating the mixture for 10 min at 37 °C. The reaction mixture was separated by 1% agarose gel and examined after being stained with ethidium bromide.

COc1cc([C@@H]2c3cc4c(cc3[C@@H](O[C@@H]3O[C@@H]5CO[C@@H](C)O[C@H]5[C@H](O)[C@H]3O)[C@H]3COC(=O)[C@H]23)OCO4)cc(OC)c1O [etoposide, reference compound]
linear DNA formation from catenated kDNA: a linear DNA formation was seen
